# Reference: US10201625B2, “Radiolabelled octreotate analogues as PET tracers” (IMPERIAL COLLEGE, priority 2011, dated 2019)
# Chains of the proteins cited; added tags and fusions are not shown. Lines headed by an entry give the natural chain unless they say otherwise; changes in a name come on top.
# UniProt P30680: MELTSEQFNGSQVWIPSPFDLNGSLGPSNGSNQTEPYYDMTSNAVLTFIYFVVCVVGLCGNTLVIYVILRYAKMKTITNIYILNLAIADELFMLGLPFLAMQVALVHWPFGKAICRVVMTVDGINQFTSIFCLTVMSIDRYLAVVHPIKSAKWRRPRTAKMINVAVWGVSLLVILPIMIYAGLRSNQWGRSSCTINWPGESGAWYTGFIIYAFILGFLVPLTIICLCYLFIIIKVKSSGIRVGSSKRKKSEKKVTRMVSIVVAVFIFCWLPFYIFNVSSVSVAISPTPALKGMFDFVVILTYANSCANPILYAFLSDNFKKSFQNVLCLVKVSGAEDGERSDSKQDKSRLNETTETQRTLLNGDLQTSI
# Where two headings read alike, the source gives them in different places.
# Legend:
# somatostatin receptor = biological target: T1, somatostatin receptor (Rattus norvegicus, UniProt P30680); assay: Competitive binding assay displacing [111In]-DTPA-Octreotide (OctreoScan) on AR42J tumour cells; conditions: [19F]-triazole, read-out: Triazole analogue (b) IC50
# T1 construct: endogenous in cells; host or cells: AR42J pancreatic tumour cells (whole cells)
# AR42J tumor xenografts [1] = assay: Dynamic PET imaging of AR42J tumor bearing mice; format: in vivo; conditions: for Tumor radiotracer uptake at 60 min by imaging: AR42J tumor
# Description: Briefly, tail veins were cannulated under general anesthesia (isofluorane).
# AR42J tumor xenografts [2] = assay: Direct counting of tissue radioactivity (γ-counter), AR42J tumor; format: in vivo, mice
# [3] = mouse plasma 30 min after i.v. injection, radio-HPLC
# HCT116 xenografts [4] = conditions: HCT116 tumor (low sstr-2)
# HCT116 xenografts [5] = conditions: HCT116 tumor (low sstr-2); remark: listed apart in the source
# [6] = blocking: unlabelled octreotide 10 mg/kg i.v. 10 min before radiotracer
substance,measurement,setting,value
FET-βAG-TOGA [5b],IC50,somatostatin receptor,1.6 ± 0.2 nM
same,Tumor radiotracer uptake at 60 min by imaging,"AR42J tumor xenografts [1]; 60 min, i.v.",8.23 ± 2.02 % ID/ml
same,Tumor radiotracer uptake at 60 min by imaging,AR42J tumor xenografts [1]; [6],6.24 ± 0.64 % ID/ml
same,Kidney uptake in words,"AR42J tumor xenografts [1]; PET, AR42J tumor bearing mice",highest
same,Liver uptake in words,"AR42J tumor xenografts [1]; PET, AR42J tumor bearing mice",lowest liver uptake
same,Bone uptake,"AR42J tumor xenografts [1]; PET, mice",low bone uptake
same,Tumor radiotracer uptake after 60 min by γ-counting,AR42J tumor xenografts [2]; after 60 min PET scan,11.58 ± 0.67 % ID/g
same,Tumor radiotracer uptake after 60 min by γ-counting,AR42J tumor xenografts [2]; [6],3.93 ± 0.99 % ID/g
same,In vivo stability in plasma,[3]; listed as FET-βAG-TOCA,only intact parent tracer was found
same,In vivo stability in plasma,[3]; listed as [^18F]-FET-βAG-TOCA,stable radiotracer
same,Tumor radiotracer uptake at 60 min by imaging,HCT116 xenografts [4],2.42 ± 0.35 % ID/ml
same,Tumor radiotracer uptake after 60 min by γ-counting,HCT116 xenografts [5],0.52 ± 0.39 % ID/g
